By UniProt entry, the sequences of proteins in these tests, tags left out.
UniProt P33535, whole entry: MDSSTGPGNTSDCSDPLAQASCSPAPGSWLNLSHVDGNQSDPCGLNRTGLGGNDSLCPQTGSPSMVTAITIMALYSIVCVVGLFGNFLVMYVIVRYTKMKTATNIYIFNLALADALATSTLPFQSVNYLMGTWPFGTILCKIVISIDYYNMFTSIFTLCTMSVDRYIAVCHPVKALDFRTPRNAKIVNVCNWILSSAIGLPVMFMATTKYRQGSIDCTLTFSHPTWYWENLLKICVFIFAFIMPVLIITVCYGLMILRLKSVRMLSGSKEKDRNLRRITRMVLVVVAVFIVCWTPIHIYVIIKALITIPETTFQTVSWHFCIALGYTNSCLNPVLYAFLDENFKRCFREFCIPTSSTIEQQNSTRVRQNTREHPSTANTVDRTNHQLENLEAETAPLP

In patent publication US5658908A (priority 1992, dated 1997):

Target: T1, Mu Receptor (Rattus norvegicus, UniProt P33535)
T1 construct: Rat (Sprague-Dawley) brain membranes were prepared; from tissue; host or cells: rat (Sprague-Dawley) brain membranes
Assay: Mu receptor binding, rat brain membranes
Set-up: species or system rat (Sprague-Dawley)
Settings: 125I-[D-Ala2,N-MePhe4,Met(O)ol5]enkephalin 0.1 nM, 24° C., 60 min, mean of (n) experiments

## C=CCN1C[C@H](C)N([C@H](c2ccc(C(=O)N(CC)CC)cc2)c2cccc(O)c2)C[C@H]1C (relative stereo) [Example 6, (±)-4-((αR*)-α-((2S*,5R*)-4-Allyl-2,5-dimethyl-1-piperazinyl)-3-hydroxybenzyl)-N,N-diethylbenzamide]
  IC50: 15 nM

## C=CCN1C[C@H](C)N([C@@H](c2cccc(O)c2)c2cccc(C(=O)N(CC)CC)c2)C[C@H]1C (relative stereo) [Example 84, (±)-3-((αR*)-α-((2S*,5R*)-4-allyl-2,5-dimethyl-1-piperazinyl)-3-hydroxybenzyl)-N,N-diethylbenzamide]
  IC50: 3 nM

## C=CCN1C[C@H](C)N([C@H](c2ccc(C(=O)N(CC)CC)cc2)c2cccc(O)c2)C[C@H]1C [Example 6a, (+)-4-((αR)-α-((2S,5R)-4-Allyl-2,5-dimethyl-1-piperazinyl)-3-hydroxybenzyl)-N,N-diethylbenzamide]
  IC50: 5 nM

## C=CCN1C[C@H](C)N([C@@H](c2cccc(O)c2)c2cccc(C(=O)N(CC)CC)c2)C[C@H]1C [Example 85, (+)-3-((αR)-α-((2S,5R)-4-Allyl-2,5-dimethyl-1-piperazinyl)-3-hydroxybenzyl)-N,N-diethylbenzamide]
  IC50: 3.2 nM
